Key:
Phospholipase D1 = biological target: T1, Phospholipase D1 (Homo sapiens, UniProt Q13393); assay: Inhibition of PLD1 in human Calu1 cells; assay type: cell-based, Calu-1
T1 sequence (Q13393 whole entry): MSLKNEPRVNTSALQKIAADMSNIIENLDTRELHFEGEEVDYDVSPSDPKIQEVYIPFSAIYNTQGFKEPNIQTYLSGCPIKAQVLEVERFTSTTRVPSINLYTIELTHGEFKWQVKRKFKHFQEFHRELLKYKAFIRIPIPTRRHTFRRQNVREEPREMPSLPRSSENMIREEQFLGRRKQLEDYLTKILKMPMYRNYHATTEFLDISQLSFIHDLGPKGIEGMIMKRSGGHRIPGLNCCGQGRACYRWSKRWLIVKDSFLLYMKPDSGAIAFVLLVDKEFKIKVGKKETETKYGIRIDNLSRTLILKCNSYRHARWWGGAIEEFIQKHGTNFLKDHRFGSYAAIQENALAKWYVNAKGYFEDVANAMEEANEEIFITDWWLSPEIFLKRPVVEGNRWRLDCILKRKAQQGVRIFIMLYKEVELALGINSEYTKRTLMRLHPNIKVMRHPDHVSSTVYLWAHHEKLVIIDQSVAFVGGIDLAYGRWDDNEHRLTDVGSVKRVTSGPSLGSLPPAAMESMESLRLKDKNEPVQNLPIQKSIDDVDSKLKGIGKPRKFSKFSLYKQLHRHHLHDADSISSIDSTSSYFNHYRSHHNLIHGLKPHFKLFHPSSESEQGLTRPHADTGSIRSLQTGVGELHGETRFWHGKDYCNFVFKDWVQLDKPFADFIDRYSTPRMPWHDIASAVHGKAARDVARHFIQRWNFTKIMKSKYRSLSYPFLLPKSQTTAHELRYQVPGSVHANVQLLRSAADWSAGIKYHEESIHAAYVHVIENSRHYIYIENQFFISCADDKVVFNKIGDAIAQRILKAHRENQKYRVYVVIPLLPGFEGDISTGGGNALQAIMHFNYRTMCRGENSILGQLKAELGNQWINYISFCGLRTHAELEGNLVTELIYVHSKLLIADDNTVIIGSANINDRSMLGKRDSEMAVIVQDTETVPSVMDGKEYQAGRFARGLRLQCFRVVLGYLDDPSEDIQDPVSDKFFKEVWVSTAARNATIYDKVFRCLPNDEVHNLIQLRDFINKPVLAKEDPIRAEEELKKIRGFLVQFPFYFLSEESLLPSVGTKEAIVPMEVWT

The chains behind the UniProt entries cited, without tags or fusion partners. Where a name states a change or a piece, a line headed by the entry shows the natural chain unless it says otherwise.
UniProt O14939: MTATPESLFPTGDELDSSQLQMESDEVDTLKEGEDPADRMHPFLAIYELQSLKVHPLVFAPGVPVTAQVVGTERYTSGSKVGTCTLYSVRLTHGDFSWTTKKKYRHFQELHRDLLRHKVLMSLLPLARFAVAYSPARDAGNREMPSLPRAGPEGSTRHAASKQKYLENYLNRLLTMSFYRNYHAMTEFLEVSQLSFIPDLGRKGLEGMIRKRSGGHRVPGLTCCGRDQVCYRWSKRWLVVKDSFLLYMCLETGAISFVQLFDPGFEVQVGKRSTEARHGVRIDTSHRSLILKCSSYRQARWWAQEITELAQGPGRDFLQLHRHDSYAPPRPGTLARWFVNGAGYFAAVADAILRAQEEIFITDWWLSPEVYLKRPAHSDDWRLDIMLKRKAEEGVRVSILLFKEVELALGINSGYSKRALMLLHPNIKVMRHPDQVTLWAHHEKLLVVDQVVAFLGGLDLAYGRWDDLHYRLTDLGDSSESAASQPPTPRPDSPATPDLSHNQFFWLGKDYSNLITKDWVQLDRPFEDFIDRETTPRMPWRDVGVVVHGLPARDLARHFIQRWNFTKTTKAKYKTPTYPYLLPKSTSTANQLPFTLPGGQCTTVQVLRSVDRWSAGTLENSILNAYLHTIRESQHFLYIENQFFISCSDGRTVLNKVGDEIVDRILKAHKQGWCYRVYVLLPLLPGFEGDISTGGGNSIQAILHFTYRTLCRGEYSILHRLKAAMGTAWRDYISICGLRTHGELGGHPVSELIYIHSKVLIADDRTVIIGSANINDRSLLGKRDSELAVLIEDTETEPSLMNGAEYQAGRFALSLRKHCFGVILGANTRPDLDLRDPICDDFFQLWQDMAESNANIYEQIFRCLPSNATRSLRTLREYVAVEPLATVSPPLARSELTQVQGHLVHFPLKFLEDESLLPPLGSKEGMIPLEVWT

Phospholipase D2 = Phospholipase D2 (Homo sapiens, UniProt O14939); assay: Inhibition of GFP-labeled PLD2 in human HEK293 cells; assay type: cell-based
HEK293 = assay: Selectivity for PLD1 in human Calu1 cells over GFP-labeled PLD2 in human HEK293 cells; assay type: cell-based

Compound	IC50 (Phospholipase D1)	IC50 (Phospholipase D2)	fold change (FC) (HEK293)
C[C@@H](CN1CCC2(CC1)C(=O)NCN2c1ccccc1)NC(=O)c1ccc2ccccc2c1	25 nM	140 nM	
C[C@@H](CN1CCC(n2c(=O)[nH]c3cc(Br)ccc32)CC1)NC(=O)[C@H]1C[C@@H]1c1ccccc1			> 1700

Reference: ChEMBL document CHEMBL1153994
